According to patent US7128895B2, “Use of bile acid derivatives conjugated with metal ion chelated complexes for the diagnostic assessment of microvascular permeability” (Bracco Imaging S.p.A., priority 2000, dated 2006):

Experiment: Urinary and faecal excretion screening of an intravenously administered contrast agent
Type: in vivo
Conditions: rats, even at the highest injected doses
Procedure: Experimental Model for the Urinary and Faecal Excretion Screening of an Intravenously Administered Contrast Agent
The experimentation is performed on 6 rats. The animals are intravenously injected (in the marginal caudal vein) with single doses of 0.1 and 1.0 mmol·kg^−1 of B22956/1 contrast agent at an injection rate of 6 mL/min.
The rats are individually housed in metabolic cages and urine and faeces are collected daily, for 7 days after administration. In particular faeces and urine are collected at the following time periods: 0 to 24 h,and every 24 hours up to 7 days.
The animals are killed by decapitation at 7 days post-dosing and animals blood is collected in heparinised test tubes and then centrifuged for 15 min at 3500·g to separate the plasma. After bleeding, liver, spleen, femurs and kidneys are collected and weighted to evaluate residual content of Gd in the organs. Residual gadolinium concentration in the organic samples is determined by inductively-coupled plasma atomic emission spectrometry (ICP-AES) with a Jobin-Yvon Mod 24 spectrometer
Excretion Screening of Rats Injected with B22956/1.
The screening is performed using the contrast compound as 0.25M solution. The agent in intravenously injected in 6 rats with single doses of 0.1 and 1.0 mmol·kg^−1 of animal body weight.

## gadolinium complex of the [3(S),5,12]-3-[[4-[bis[2-[bis(carboxymethyl)-amino]ethyl]amino]-4-carboxy-1-oxobutyl]amino]-12-hydroxycholan-24-oic acid [B22956/1]
  clinical signs between administration and sacrifice: no animal showed any clinical sign
